Molecular target: T1, PfDHODH (Phe158–Ser569) (Plasmodium falciparum, UniProt Q08210)
T1 construct: enzyme activity determination of PfDHODH (Phe158–Ser569) and hDHODH (Met30–Arg396); made in house
Test: In vitro enzyme assay, PfDHODH (DCIP reduction)
Type: biochemical
Protocol: Protein expression, purification, and enzyme activity determination of PfDHODH (Phe158–Ser569) and hDHODH (Met30–Arg396) were performed according to our previous work. The enzymes were diluted to a final concentration of 10 nM using the assay buffer containing 50 mM HEPES (pH 8.0), 150 mM KCl, 0.1% Triton X-100 supplemented with 100 µM UQ0, and 120 µM DCIP. The mixture was transferred into a 96-well plate and incubated with or without various amounts of inhibitors for 5 min at room temperature, and then the dihydroorotate was added to a final concentration of 500 µM to initiate the reaction. The reaction was monitored by measuring the decrease in DCIP in the absorption at 600 nm at each 30 s over a period of 6 min. Brequinar and DSM1 were measured as the positive controls for hDHODH and PfDHODH, respectively. Percent inhibition relative to no inhibitor control was calculated by (1 − Vi/V0) × 100. For the determination of the IC50 value of the inhibitor, eight or nine different concentrations were applied. Each inhibitor concentration point was tested in triplicate, and the IC50 values were calculated using the sigmoidal fitting option of the program Origin 8.0 (Originlab, Northampton, MA, US).

Protein sequences, listed by entry. Tags and fused reporters are not part of them. Residues count along the entry.
UniProt Q08210, 158-569: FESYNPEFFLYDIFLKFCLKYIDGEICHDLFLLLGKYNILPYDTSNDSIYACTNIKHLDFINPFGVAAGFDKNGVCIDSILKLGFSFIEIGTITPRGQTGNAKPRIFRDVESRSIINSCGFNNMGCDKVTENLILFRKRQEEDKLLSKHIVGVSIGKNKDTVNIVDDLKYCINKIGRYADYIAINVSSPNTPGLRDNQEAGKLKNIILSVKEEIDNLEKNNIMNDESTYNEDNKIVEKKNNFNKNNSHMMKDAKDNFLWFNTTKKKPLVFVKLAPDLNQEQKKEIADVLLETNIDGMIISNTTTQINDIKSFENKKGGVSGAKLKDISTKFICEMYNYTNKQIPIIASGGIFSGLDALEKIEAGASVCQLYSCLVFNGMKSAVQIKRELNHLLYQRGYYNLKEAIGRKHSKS

Cc1cc(Nc2ccc3ccccc3c2)n2ncnc2n1 [DSM1, reference compound]
IC50: 0.042 ± 0.004 µM

Reference: article PMC6099574, “Synthesis, Design, and Structure–Activity Relationship of the Pyrimidone Derivatives as Novel Selective Inhibitors of Plasmodium falciparum Dihydroorotate Dehydrogenase” (Molecules : A Journal of Synthetic Chemistry and Natural …, 2018)
